From PMC7356587, “Efficacy, Stability, and Safety Evaluation of New Polyphenolic Xanthones Towards Identification of Bioactive Compounds to Fight Skin Photoaging” (Molecules, 2020)

The chains behind the UniProt entries cited, without tags or fusion partners. Residues count along the entry.
UniProt C7FF04, 2-392: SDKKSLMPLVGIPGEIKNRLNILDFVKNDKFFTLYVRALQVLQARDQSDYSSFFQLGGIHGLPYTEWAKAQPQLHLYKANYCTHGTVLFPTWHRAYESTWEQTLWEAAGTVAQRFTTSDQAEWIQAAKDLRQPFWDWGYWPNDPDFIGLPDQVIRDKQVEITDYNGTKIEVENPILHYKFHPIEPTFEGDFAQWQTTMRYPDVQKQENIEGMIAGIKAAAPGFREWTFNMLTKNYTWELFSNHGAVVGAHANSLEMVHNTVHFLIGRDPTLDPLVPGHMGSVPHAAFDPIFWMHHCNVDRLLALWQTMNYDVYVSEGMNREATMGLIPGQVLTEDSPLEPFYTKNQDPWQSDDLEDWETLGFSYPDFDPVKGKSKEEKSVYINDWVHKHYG

How the values were obtained:
[1] = cell-free system; cited from earlier work
HaCaT cells = assay: ROS generation assay (DCFH-DA); format: cell-based, human; conditions: 12.5-200 µM, 24 h
Description: The HaCaT cells were maintained at 37 °C in a humidified atmosphere of 95% air and 5% CO2 in the incubator in dulbecco’s modified eagle’s medium (DMEM) with 10% fetal bovine serum (FBS) and 1% antibiotics. Using an inverted microscope, cell confluence was observed and if the cells reached 70–80% confluence, subculture was done to prevent cell death. For this purpose, the culture medium was aspirated and the cells were washed with dulbecco’s phosphate buffered saline (DPBS), 2 mL of trypsin-EDTA were added and incubated for 5–8 min at 37 °C in a 5% CO2 atmosphere. After cell detaching, medium was added in order to block the trypsin action and cell suspension was centrifuged at 416 g for 5 min. The supernatant was discarded, the pellet suspended in culture medium, and cells were counted. For cell counting: 50 μL of cell suspension were added to 50 μL of Trypan Blue vital dye […], resuspended, placed in a Neubauer chamber (Hirschmann, Germany) and the viable cells were counted. […]
Cells (2 × 10^4 cells/well) were seeded on 96-well tissue culture plates and incubated at 37 °C in a 5% CO2 atmosphere for 24 h. […] After incubation, the fluorescence was measured using a fluorescence plate reader with a baseline of 485 nm excitation and 530 nm emission. The study of the putative interference of compound and solvent fluorescence was previously performed. […]

tyrosinase = tyrosinase (Agaricus bisporus, UniProt C7FF04); assay: biochemical; conditions: read-out: Tyrosinase % Inhibition (150 µM)
elastase = target: T1, elastase (Homo sapiens, UniProt P08246); assay: Elastase inhibition assay; format: biochemical
T1 construct: purchased Sigma-Aldrich
T1 sequence (P08246 30-267): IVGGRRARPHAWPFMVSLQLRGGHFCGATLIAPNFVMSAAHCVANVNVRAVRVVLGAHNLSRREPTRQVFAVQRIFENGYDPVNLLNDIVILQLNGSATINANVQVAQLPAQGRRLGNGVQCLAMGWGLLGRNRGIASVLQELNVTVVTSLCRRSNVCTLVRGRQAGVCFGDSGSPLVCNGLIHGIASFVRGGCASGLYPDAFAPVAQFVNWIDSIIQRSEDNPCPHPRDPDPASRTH

collagenase = assay: Collagenase inhibition assay; format: biochemical
Description: An adaptation of the method of Moore and Stein [40] with modifications by Mandl et al. was used to determine anticollagenase activity. To 2 mL test tubes was added: 25 μL of collagenase solution (0.8 U/mL), 25 μL TES buffer (50 mM) with 0.36 mM calcium chloride (pH 7.4) and 50 μL of test sample or the reference compound EDTA (with concentrations ranging between 9.4 and 150 μM). The tubes were incubated in a water bath at 37 °C for 20 min. Thereafter, 50 μL FALGPA (1 mM) solution was added to the tubes and incubated further for 60 min at 37 °C. To all tubes, 200 μL of a solution containing equal volumes of a 1.6 mg/mLTin chloride (II) solution in 200 mM citrate buffer (pH 5) and 50 mg/mL ninhydrin solution in DMSO was added. All tubes were placed in a water bath (100 °C) for 5 min and left to cool to room temperature before adding 200 μL of 50% isopropanol to each tube. Contents in the tubes were then transferred to respective wells in 96-well plates.

DPPH reduction assay = conditions: IC50 not determinable, probably due to solubility issues
Description: The reduction of the stable DPPH free radical was measured by monitoring the change in absorbance at 517 nm. These experiments were made in a 96-well microplate. Compounds 1, 2 and 3 were dissolved in ethanol 70%, and compounds 4 and 5 were dissolved in a solution of ethanol 70% with 1% DMSO. In each experiment, the compounds were tested in the concentration range 0.7812 μM to 50 μM, in triplicate. For each sample concentration, a blank with ethanol 70%, instead of DPPH was made. Ascorbic acid was used as a positive control and tested in the same conditions. Blanks containing only ethanol 70% and control containing DPPH in ethanol 70% (190 μM) were used. The absorbance at 517 nm was measured in a microplate reader BioTek^TM Synergy HT (BioTeck Instruments, Vermont, USA) after 60 min of incubation in the dark with a temperature-controlled holder at 25 °C. The microplate was shaken before each reading.
The scavenging percentage of DPPH was calculated using the following equation:(1) %scavenging of DPPH=100×(1−Abssample+DPPH−Abssample blank/AbsDPPH−AbsEtOH)
The IC50 value for each sample and for the ascorbic acid was obtained by linear regression.

SMILES	scavenging activity of NO [1]	ROS generation, fluorescence signal of DCFH-DA probe relative to solvent control (HaCaT cells)	inhibition at 150 µM (tyrosinase)	inhibition at 150 µM (elastase)	Collagenase % Inhibition (150 µM) (collagenase)	maximum reduction activity (DPPH reduction assay)
O=c1c2ccccc2oc2ccc(O)c(O)c12 [Compound 1, 1,2-dihydroxy-9H-xanthen-9-one]	did not show any scavenging activity	did not promote any significant increase	96.17 ± 0.88%	35.2 ± 1.84%		
Cc1cc(O)c(O)c2oc3ccccc3c(=O)c12 [Compound 2, 3,4-dihydroxy-1-methyl-9H-xanthen-9-one]			84 ± 1.87%	10.8 ± 0.39%		
Cc1cc(O)c(O)c2oc3cc(O)ccc3c(=O)c12 [Compound 3, 3,4,6-trihydroxy-1-methyl-9H-xanthen-9-one]			91.42 ± 0.23%	18.2 ± 0.71%	24.91 ± 0.93 ^b %	
Cc1cc(O)c2c(=O)c3c(O)cc(C)cc3oc2c1 [Compound 5, 1,8-dihydroxy-3,6-dimethyl-9H-xanthen-9-one]						lower than 50%

Marks after values point to notes of the source that are not given here.
